Results as given in article PMC8470279, “Biosynthesis of the Novel Endogenous 15-Lipoxygenase Metabolites N-13-Hydroxy-octodecadienoyl-ethanolamine and 13-Hydroxy-octodecadienoyl-glycerol by Human Neutrophils and Eosinophils” (Cells, 2021).

Experiments:
human eosinophils = assay: Biosynthesis of 15-LO metabolites by human eosinophils; conditions: 1 µM MAFP 5 min, then 3 µM 1-LG 5 min
Procedure: (§1) For tissues samples, ~10 mg of tissue was put in 500 µL of Tris Buffer, crushed with a pestle, mixed with 500 µL of cold (−20 °C) MeOH containing the internal standards, centrifuged at 10,000× g and the supernatant collected. All Samples were processed by adjusting the final volume to 1 mL (incubation buffer-MeOH mixture, 1/1, v/v plus the internal standards). Samples (1 mL) were acidified with 0.575% of acetic acid and mixed with 1 mL CHCl3. Samples were then vortexed for 1 min, then centrifuged at 3000× g for 5 min. […] 15-LO metabolites were quantified using calibration curves, as described before.
(§2) Neutrophils and eosinophils were isolated from the peripheral blood of healthy volunteers as described before. […] Purity and viability were >95% and were assessed by Diff-Quick coloration and Trypan blue exclusion, respectively.
(§3) Prewarmed (37 °C) suspensions of human neutrophils (5 × 10^6 cells/mL) or eosinophils (10^6 cells/mL) in HBSS containing 1.6 mM CaCl2 were incubated with 1 µM MAFP for 5 min before the addition of LA, 1-LG, or LEA for different times or concentrations (see legends of Figures 3–8). […] Lipids were extracted and quantified by LC-MS/MS as described above.

human neutrophils = assay: Biosynthesis of 15-LO metabolites by human neutrophils; conditions: MAFP 5 min, then 3 µM 1-LG 5 min
Procedure: as §1, §2, §3

Substance: Methyl-arachidonoyl-fluorophosphonate
- Enhancement of 1-LG-induced 13-HODE-G biosynthesis (human eosinophils): tenfold
- Fold less 13-HODE biosynthesized by 1-LG-treated neutrophils (human neutrophils): 65 times
- Fold more 13-HODE-G biosynthesized by 1-LG-treated neutrophils (human neutrophils): 20 times
